The values that follow come from ChEMBL document CHEMBL3352389, “Evaluation of class I HDAC isoform selectivity of largazole analogues” (Bioorg Med Chem Lett, 2014).

This experiment deals with T1, Histone deacetylase 8 (Homo sapiens) (UniProt Q9BY41).
T1 sequence (whole entry): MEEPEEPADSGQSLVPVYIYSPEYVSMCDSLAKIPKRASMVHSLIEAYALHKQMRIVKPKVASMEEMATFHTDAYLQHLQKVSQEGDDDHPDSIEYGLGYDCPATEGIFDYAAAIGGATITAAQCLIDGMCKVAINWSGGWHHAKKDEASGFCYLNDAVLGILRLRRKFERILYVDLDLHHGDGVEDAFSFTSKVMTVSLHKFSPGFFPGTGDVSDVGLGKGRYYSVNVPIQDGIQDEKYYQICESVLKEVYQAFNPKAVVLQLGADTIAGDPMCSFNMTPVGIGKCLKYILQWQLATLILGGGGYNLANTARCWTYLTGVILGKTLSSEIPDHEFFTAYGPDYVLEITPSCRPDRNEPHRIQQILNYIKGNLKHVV
The experiment can be described thus: Inhibition of HDAC8 (unknown origin) up to 1 uM incubated at 37 degC for 30 mins.

Activity calls are given as the source filed them. The rule behind the calls is not given here.

As for `C[C@@]12CSC(=N1)c1csc(n1)CNC(=O)C[C@@H](/C=C/CCS)OC(=O)[C@H](Cc1ccccc1)NC2=O`, the inhibition entry is “inactive”.
As for `C[C@@]12CSC(=N1)c1csc(n1)CNC(=O)C[C@@H](/C=C/CCS)OC(=O)[C@H](CC(=O)O)NC2=O`, the inhibition result is “inactive”.
As to `C[C@@]12CSC(=N1)c1csc(n1)CNC(=O)C[C@@H](/C=C/CCS)OC(=O)[C@H](CCN)NC2=O`, the inhibition entry was “inactive”.
